The text below walks through data of article PMC6204601, “In Vivo Selectivity and Localization of Reactive Oxygen Species (ROS) Induction by Osmium Anticancer Complexes That Circumvent Platinum Resistance” (Journal of Medicinal Chemistry, 2018).

Data set [1] concerns Singapore wild-type zebrafish embryos. The following applies: read-out: LC50 (Danio rerio) SG-WT, 96 h exposure.
Data set [2] has as its system AB wild-type zebrafish embryos. The following applies: read-out: LC50 (Danio rerio) AB-WT, 96 h exposure.
The subject of data set [3] is Tubingen wild-type zebrafish embryos. Put plainly: Zebrafish embryo toxicity (FET) test, TU-WT. The following applies: read-out: LC50 (Danio rerio) TU-WT, 96 h exposure.

For orientation: LC50 means the concentration that kills 50% of the test population. Turning to [Os(p-cymene)(SRB-DPEN)] [Complex 6], the 50% lethal concentration (LC50) in data set [1] worked out at 2.2 ± 0.1 µM; in data set [2], 4 ± 0.1 µM; in data set [3], 3.1 ± 0.1 µM.

Take `Cc1ccc(C(C)C)cc1.O=S(=O)(c1ccccc1)[N]1[Os][NH][C@H](c2ccccc2)[C@H]1c1ccccc1` [Complex 5, [Os(p-cymene)(Bs-DPEN)]]: the median lethal concentration (LC50) in data set [2] is 3.1 ± 0.3 µM. Take `Cc1ccc(S(=O)(=O)[N]2[Os][NH][C@H](c3ccccc3)[C@H]2c2ccccc2)cc1.c1ccc(-c2ccccc2)cc1` [Complex 7, [Os(biphenyl)(Ts-DPEN)]]: the median lethal concentration (LC50) in data set [1] amounted to 2.2 ± 0.2 µM. With `Cc1ccc(C(C)C)cc1.[NH-]C(c1ccccc1)C([N-]S(=O)(=O)c1ccc([N+](=O)[O-])cc1)c1ccccc1.[Os+2]` (stereo not drawn) [Complex 3, [Os(p-cymene)(Ns-DPEN)]], the LC50 in data set [3] amounted to 2.2 ± 0.3 µM.
